Values joined by “and” are separate entries in the source; they are usually repeats but may differ in a detail not shown here. Equal entries are not always repeated.
Key:
[1] = tested on: rabbit reticulocyte ubiquitin activating enzyme (E1); format: biochemical
Method: The incorporation of ^32 PPi into ATP was measured by adsorbing the resulting ^32 P-labeled ATP onto charcoal and counting the bound radioactivity by Cerenkov radiation (Haas, A. L. and Rose, I. A., supra, 1982). Nonspecifically-bound ^32 PPi was corrected by subtracting radioactivity in control incubations conducted in the absence of added E1 (Haas, A. L. and Rose, I. A., supra, 1982).
Since these measurements were conducted in the absence of added AMP, the kinetic constants reflect step 3 of the E1 reaction involving formation of the final ternary complex (Haas, A. L. and Rose, I. A. J. Biol. Chem., .supra, 1982).

carboxypeptidase B = test: pI shift assay (isoelectric focusing after carboxypeptidase B) for intact carboxyl terminal glycine dipeptide
Text: Previous work has shown that the carboxyl terminal glycine dipeptide of ubiquitin is acutely sensitive to cleavage by trypsin-like activities (Haas, A. L., et al., J. Biol. Chem. 260:4694-4703, 1985; Wilkinson, K. D. and Audhya, T. K., J. Biol. Chem. 256:9235-9241, 1981). […] The specificity of carboxypeptidase B for lysine and arginine precludes a similar pI shift for intact ubiquitin in which R74 is masked by the glycine dipeptide (Haas, A. L., et al., supra, 1985).

[2] = concentrations higher than 50 μM

With ubiquitin cross-reactive protein [UCRP] the kcat [1] was 0.026 s^-1 and 0.026, the “kcat fold lower than ubiquitin” value [1] was 370 fold and the pI (carboxypeptidase B; before carboxypeptidase treatment) was 6.7. The “pI following successive incubation with carboxypeptidase A then carboxypeptidase B” value (carboxypeptidase B; control experiment) was 5.4, the “pI shift upon incubation with carboxypeptidase B” value (carboxypeptidase B; isoelectric focusing) was “failed to show a pI shift” and the solubility [2] was “Insolubility”.
